From ChEMBL document CHEMBL1129727, “Chiral pyrrolo[2,3-d]pyrimidine and pyrimido[4,5-b]indole derivatives: structure-activity relationships of potent, highly stereoselective A1-adenosine receptor antagonists” (J Med Chem, 1996)

Chains of the proteins cited; added tags and fusions are not shown.
UniProt P25099, whole entry: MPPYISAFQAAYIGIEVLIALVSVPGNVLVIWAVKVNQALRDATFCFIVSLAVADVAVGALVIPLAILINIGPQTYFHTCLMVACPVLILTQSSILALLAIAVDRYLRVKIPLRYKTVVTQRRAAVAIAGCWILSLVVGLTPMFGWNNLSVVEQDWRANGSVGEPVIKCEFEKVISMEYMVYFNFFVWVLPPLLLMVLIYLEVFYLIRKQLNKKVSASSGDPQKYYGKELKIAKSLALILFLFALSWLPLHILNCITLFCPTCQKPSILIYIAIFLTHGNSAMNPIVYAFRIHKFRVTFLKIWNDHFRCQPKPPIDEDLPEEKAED

Molecular target: Adenosine receptor A1 (Rattus norvegicus) (UniProt P25099)
Experiment: Ratio between solubility and A1 receptor affinity

Ratio: 185
Structure (SMILES): C[C@H](c1ccccc1)n1c2ccccc2c2c(N)nc(-c3ccccc3)nc21
